{
  "source": "patent US7632812B2",
  "about": "“Methods to stimulate insulin production by pancreatic β-cells” (Massachusetts General Hospital, priority 1999, dated 2009)",
  "key": {"[1]": {"system": "-4.6 kb mouse IDX-1 promoter", "assay": "Mouse IDX-1 promoter luciferase reporter (-4.6IDX-pGL3) in transfected INS-1 cells", "format": "cell-based, rat", "settings": "10 μM, 4 μg pSHH, FIG. 21"}, "rat insulin I promoter": {"system": "rat insulin I promoter", "assay": "Rat insulin I promoter luciferase reporter (-410 INS-luc) in transfected INS-1 cells", "format": "cell-based", "settings": "INS-1 cells cotransfected with pShh and -410 INS-luc; FIG. 19"}},
  "data": [
    {"compound": "CC1=C2C[C@H]3[C@@H](CC=C4C[C@@H](O)CC[C@@]43C)[C@@H]2CC[C@]12O[C@@H]1C[C@H](C)CN[C@H]1[C@H]2C", "note": "[cyclopamine]", "values": [
      {"measurement": "effect on Shh-mediated activation of the IDX-1 promoter", "setting": "[1]", "value": "decreases Shh-mediated activation of the IDX-1 promoter"},
      {"measurement": "effect on Shh-mediated activation of the insulin promoter", "setting": "rat insulin I promoter", "value": "inhibit the Shh-mediated activation of the insulin promoter"}
    ]}
  ]
}
